Experimental data as given in PubChem BioAssay AID1508623 (National Center for Advancing Translational Sciences (NCATS), 2021).
The entries are a selection whose mix differs from that of the whole data set. Records with an inconclusive call do not appear. Active and inactive are the calls of the source. Calls follow the shape of the dose curve; as a rule, active = well fitted inhibition curve with a large enough effect; inconclusive = small, poorly fitted or top-dose-only effect; inactive = no such curve, though single readings can be large or run the other way.

Assay: Primary qHTS for Identification of Small Molecule Inhibitors of Huntingtin Promoter Activity; also: nearly all actives have a fitted effect of over 50% in size
Settings: HEK293 HTT promoter firefly luciferase reporter (activity 0% = vehicle and -100% = no light), 24 h; at 57.5 µM (top of the series)
Source text: Assay Provider: Russell L. Margolis M.D.
Department Neurology, Johns Hopkins University School of Medicine, Baltimore, MD
Huntington's Disease (HD) is a neurodegenerative disorder caused by a CAG repeat expansion in exon 1 of huntingtin (HTT). While there are currently no disease-modifying treatments for HD, recent efforts have focused on development of nucleotide-based therapeutics to lower HTT expression. As an alternative to siRNA or oligonucleotide methods, we hypothesized that suppression of HTT expression might be accomplished by small molecules that either (1) directly decrease HTT expression by suppressing HTT promoter activity or (2) indirectly decrease HTT expression by increasing the promoter activity of HTT-AS, the gene antisense to HTT that appears to inhibit expression of HTT.
We developed and employed a high throughput screen for modifiers of HTT and HTT-AS promoter activity using luminescent reporter HEK293 cells; of the 52,041 compounds tested, we identified 898 replicable hits. We used a rigorous stepwise approach to assess compound toxicity and the capacity of the compounds to specifically lower huntingtin protein in 5 different cell lines, including HEK293 cells, HD lymphoblastoid cells, mouse primary neurons, HD iPSCs differentiated into cortical-like neurons, and HD hESCs. We found no compounds which were able to lower huntingtin without lowering cell viability in all assays, though the potential efficacy of a few compounds at non-toxic doses could not be excluded.
SEQUENCE No. (1, 2, 3, etc.); […] (e.g., Cells, Incubation, Reagent, etc.); VALUE and DESCRIPTION.
1; Reagent; 4 uL; 2,500 Hek293 luciferase reporter cells per wells
3; Compound; 23 nL; Control inhibitor / compound library
5; Reagent; 2.5 uL; Firefly Luc reagent; Dual-Glo Luciferase Reporter Assay System (Promega)
6; Time; 10 min; room temperature incubation
7; Detection; Luminescence; FLuc
NOTES (numbers refer to sequence above)
1; High-throughput screening, measuring luminescence from a Hek293 luciferase reporter, was performed in 1,536 well white-walled tissue-culture treated plates. 2,500 cells were plated in 4 µL of Opti-MEM per well using a Multidrop Combi Reagent Dispenser (ThermoFisher).
2; Assay plates were cultured for 24 hours.
3; Control inhibitor (PTC124; final concentration of 50 uM) and compound library (at final concentrations of 460 nM - 57.5 uM) were added to the assay plate using the Kalypsis Pintool Robotic System equipped with 1536 pinheads.
4; Cells were then incubated for 24 hours at 37 degrees C prior to luminescence measurements.
5; In all cases, luminescence was measured using the Dual-Glo Luciferase Reporter Assay System (Promega) following the manufacturer's instructions.
6; Room temperature incubation.
7; Luminescence signal was obtained using the PerkinElmer ViewLux plate reader. Results were normalized to vehicle control (0% activity) and zero RLU (-100% activity).

| SMILES | activity change, negative = inhibition |
| --- | --- |
| CCOC(=O)C(=O)CBr | inactive: -2.96% |
| COc1ccccc1C(=O)NCC1(N2CCOCC2)CCCCC1 | inactive: -5.9% |
| O=C(NCC1(N2CCOCC2)CCCCC1)c1ccc(Cl)cc1 | inactive: -5.75% |
| CCOC(=O)N1CCC(=O)CC1 | inactive: 1.2% |
| CCCCOc1ccccc1C(=O)NCC1(N2CCOCC2)CCCCC1 | inactive: -20.8% |
| O=C(NCC1(N2CCOCC2)CCCCC1)c1ccccc1Br | inactive: -12.8% |
| CCCOc1cccc(C(=O)NCC2(N3CCOCC3)CCCCC2)c1 | inactive: -18.1% |
| CCOc1ccc(C(=O)NCC2(N3CCOCC3)CCCCC2)cc1 | inactive: -14% |
| O=C(NCC1(N2CCOCC2)CCCCC1)c1ccccc1 | inactive: -7.8% |
| O=C(NCC1(N2CCOCC2)CCCCC1)c1ccc([N+](=O)[O-])cc1 | inactive: -15.1% |
| O=C(NCC1(N2CCOCC2)CCCCC1)c1ccccc1[N+](=O)[O-] | inactive: -6.72% |
| CCC(=O)N(c1ccccc1)C1CCNCC1 | inactive: -3.47% |
| COc1cc(C(=O)NCC2(N3CCOCC3)CCCCC2)cc(OC)c1OC | inactive: -12% |
| CC(C)(C)c1ccc(C(=O)NCC2(N3CCOCC3)CCCCC2)cc1 | inactive: -18.5% |
| Cc1ccccc1C(=O)NCC1(N(C)C)CCCCC1 | inactive: -8.43% |
| CN(C)C1(CNC(=O)c2ccc(C(C)(C)C)cc2)CCCCC1 | inactive: -13.2% |
